# Values of other authors as cited in patent US5422118A, “Transdermal administration of amines with minimal irritation and high transdermal flux rate” (priority 1992, dated 1995).
# Conditions: Table 2; cited from earlier work
compound,measurement,value
CN(C)CCC(c1ccc(Cl)cc1)c1ccccn1 (stereo not shown) [chlorpheniramine],effective blood concentration,10.6 ng/mL
